# Test results taken from PubChem BioAssay AID2235 (The Scripps Research Institute Molecular Screening Center, 2010).
# Sequences of proteins named here, by UniProt entry; tags and fusion partners are left off.
# UniProt P62136, whole entry, looked up: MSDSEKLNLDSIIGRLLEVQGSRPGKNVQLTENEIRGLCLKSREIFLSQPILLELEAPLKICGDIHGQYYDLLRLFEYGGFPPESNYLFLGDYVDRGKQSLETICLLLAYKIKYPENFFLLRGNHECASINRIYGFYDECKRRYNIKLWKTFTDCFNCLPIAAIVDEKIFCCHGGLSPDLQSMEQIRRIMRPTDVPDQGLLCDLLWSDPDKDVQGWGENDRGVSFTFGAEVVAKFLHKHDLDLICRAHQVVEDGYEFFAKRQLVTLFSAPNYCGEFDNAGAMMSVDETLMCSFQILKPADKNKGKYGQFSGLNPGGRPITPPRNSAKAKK
# This is a selection; strong and weak results do not stand in their true shares. The source made the active and inactive calls.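 How the source made its calls: active means inhibition above the mean inhibition of all tested compounds plus 3 SD, computed separately for each screening campaign (cut at about 15% in these data); inactive means the rest.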
# Target: Serine/threonine-protein phosphatase PP1-alpha catalytic subunit (Homo sapiens) (UniProt P62136)
# Test: PP1-alpha phosphatase inhibitors, primary screen, counter-screen for PP5 inhibitor project, biochemical, fluorescence, OMFP substrate, single point (AID 2235)
# Conditions: purified PP1alpha, at 6.7 µM, hits give high values
row,Compound,inhibition
1,Nc1cc(N)c2nonc2c1[N+](=O)[O-],inactive: -7.12%
2,CC(C)CC(=O)NC(Sc1ccc(Cl)cc1)C(Cl)(Cl)Cl (stereo unspecified),inactive: -3.47%
3,CN(C(=O)Cc1ccc(Cl)c(Cl)c1)[C@H]1CCCC[C@@H]1N1CCCC1,inactive: 0.05%
4,Cc1ccc(NP(=O)(Oc2ccccc2F)Oc2ccccc2F)nc1,inactive: -0.34%
5,Cc1cc(SC(NC(=O)c2ccc(F)cc2)C(Cl)(Cl)Cl)ncn1 (stereo unspecified),inactive: 1.62%
6,CCOP(=O)(Nc1ccccc1)OCC,inactive: -3.22%
7,O=P(Nc1nc2ccc(Cl)cc2s1)(c1ccccc1)c1ccccc1,inactive: 1.99%
8,CC(=O)Nc1ccc([As](=O)(O)O)cc1,inactive: -0.37%
9,O=C(O)c1ccccc1[As](=O)(O)O,inactive: 1.12%
10,CCN(N=Nc1nonc1N)c1nonc1N,inactive: -0.03%
11,O=[N+]([O-])c1cc([N+](=O)[O-])c(CCN2CCOCC2)c([N+](=O)[O-])c1,inactive: 8.28%
12,Cc1ccc(NP(=O)(Oc2cccc(C)c2)Oc2cccc(C)c2)nc1,inactive: -2.58%
13,CCOC(=O)NC(Sc1ccccc1)C(Cl)(Cl)Cl (stereo unspecified),inactive: 1.44%
14,c1ccc(-c2nn[nH]n2)c(-c2nn[nH]n2)c1,inactive: 1.61%
15,O=C(NC1CCS(=O)(=O)C1)NP(=S)(Oc1ccccc1)Oc1ccccc1 (stereo unspecified),inactive: -1.59%
16,CCNC(=S)/N=C(\N)N[N+](=O)[O-],inactive: 0.19%
17,CN(C)C(=O)Oc1noc2ccccc12,inactive: -0.31%
18,Cc1ccccc1OP(=O)(Nc1ccccn1)Oc1ccccc1C,inactive: 2.31%
19,CCC(=O)N1C2C3N(C(=O)CC)C1C1N(C(=O)CC)C(C(N1C(=O)CC)N3C(=O)CC)N2C(=O)CC,inactive: 1.12%
20,O=C(OC1CN2CCC1CC2)c1ccccc1 (stereo unspecified),inactive: -2.56%
21,CC(=O)NC(SC(=S)N(CC(C)C)CC(C)C)C(Cl)(Cl)Cl (stereo unspecified),inactive: 0.02%
22,Cc1ccc(OP(=O)(Nc2ccccn2)Oc2ccc(C)cc2)cc1,inactive: 0.4%
23,COC(=O)c1cc2c(s1)N=C(c1ccccc1)N(C)P2(=O)N1CCOCC1 (stereo unspecified),inactive: -0.85%

row,Compound,inhibition
1,CC(C)(C)C(=O)NC(Sc1ccccc1)C(Cl)(Cl)Cl (stereo unspecified),inactive: 9.61%
2,CCOc1ccc(C2=NCC(CBr)S2)cc1 (stereo unspecified),inactive: 0.76%
3,O=P1(Nc2nc3ccc(Cl)cc3s2)COc2ccccc2O1 (stereo unspecified),inactive: -2.38%
4,CC(=O)Nc1ccc(Oc2c([N+](=O)[O-])cc([N+](=O)[O-])cc2[N+](=O)[O-])cc1,inactive: 0.02%
5,CC(=O)Nc1ccc([As](=O)(O)O)c(O)c1,inactive: -0.06%
6,C[C@H]1OP(=O)(Oc2ccccc2)C[C@@H]2O[C@@H]21 (stereo partly specified),inactive: -2.67%
7,C[C@@H]1C=CCP(=O)(Oc2ccccc2)O1 (stereo partly specified),inactive: -0.78%
8,Cc1ccccc1CN(C)C(=O)COC(=O)C(O)(c1ccccc1)c1ccccc1,inactive: -3.97%
9,CC(=O)c1ccc(N2CC2c2ccncc2)cc1 (stereo unspecified),inactive: 0.17%
10,c1nnnn1CCn1cnnn1,inactive: -14.7%
11,O=P(Nc1nccs1)(c1ccccc1)c1ccccc1,inactive: -2.38%
12,CC(C)C(=O)NC(Sc1ccccc1)C(Cl)(Cl)Cl (stereo unspecified),inactive: -3.04%
13,C[C@H]1OP(=O)(Oc2ccccc2)[C@H](O)[C@H](O)[C@H]1N=[N+]=[N-] (stereo partly specified),inactive: 0.39%
14,O=P(Nc1nc2ccccc2s1)(c1ccccc1)c1ccccc1,inactive: -0.16%
15,CN(C)C1(CNC(=O)c2ccc(Cl)c(S(N)(=O)=O)c2)CCCCC1,inactive: -2.2%
16,O=P(Nc1ccccn1)(c1ccc(Br)cc1)c1ccc(Br)cc1,inactive: 0.4%
17,O=C(OC1CN2CCC1CC2)c1cccc(Cl)c1 (stereo unspecified),inactive: -2.65%
18,C(Cc1nn[nH]n1)Cc1nn[nH]n1,inactive: -2.97%
19,Nc1ccc([As](=O)(O)c2ccc([N+](=O)[O-])cc2)cc1,inactive: 0.02%
20,O=[As](O)(c1ccccc1)c1ccc(O)cc1,inactive: -0.72%
21,CC(=O)NC(SC(=S)N(C)C)C(Cl)(Cl)Cl (stereo unspecified),inactive: -5.98%
22,O=[N+]([O-])c1ncn(CCn2cnc([N+](=O)[O-])n2)n1,inactive: 2.1%
23,O=[N+]([O-])c1ccc(O)c(/C=N/Nc2ccc([N+](=O)[O-])cc2[N+](=O)[O-])c1,inactive: -1.19%
